These results are taken from patent publication US20140221346A1, “THERAPEUTIC COMPOUNDS” (Gilead Sciences, Inc., priority 2013, published 2014).

The structures appear in SMILES notation.

This assay concerns HIV-IIIb. As to the kind of experiment: Test A: Antiviral Assay in MT4 Cells. As to conditions: Human immunodeficiency virus 1, IIIB, MT4, 120 h, read-out: % inhibition at 3 μM. The assay is classed as cell-based, HIV-1. The procedure: For the antiviral assay, 40 μL of 1× test concentration of 3-fold serially diluted compound in culture medium with 10% FBS was added to each well of a 384-well plate (10 concentrations) in quadruplicate. MT-4 cells were next mixed with HIV-IIIb at an m.o.i of 0.003 for 1 hour, after which time 35 μL of virus/cell mixture (2000 cells) was immediately added to each well containing 40 μL of diluted compound. The plates were then incubated at 37° C. for 5 days. After 5 days of incubation, 25 μl of 2× concentrated CellTiter-Glo™ Reagent (catalog #G7571, Promega Biosciences, Inc., Madison, Wis.) was added to each well containing MT-4 cells. Cell lysis was carried out by incubating at room temperature for 10 min and then chemiluminescence was read.

Turning to `CC(=O)Oc1ccc(-c2ccc(F)c(C(N)=O)c2)c([C@H](Cc2cc(F)cc(F)c2)NC(=O)Cn2nc(C(F)F)c3c2C(F)(F)CCC3(F)F)n1` [Compound 20B, (S)-5-(3-carbamoyl-4-fluorophenyl)-6-(1-(2-(3-(difluoromethyl)-4,4,7,7-tetrafluoro-4,5,6,7-tetrahydro-1H-indazol-1-yl)acetamido)-2-(3,5-difluorophenyl)ethyl)pyridin-2-yl acetate], the inhibition (as a rule, the relative decrease from the control value, in per cent) at 3 µM turned out to be 1%.
